Experimental data published in patent US10059668B2 (Mirati Therapeutics, Inc., priority 2015, dated 2018).
Where two headings read alike, the source gives them in different places.

Key:
MV4-11 cells = assay: Inhibition of LSD1-mediated cellular proliferation, CellTiter Glo luminescence assay; format: cell-based; conditions: Homo sapiens, read-out: EC50 (nM), Inhibition of LSD1-mediated Cell Proliferation
[1] = target: purified N-terminal truncated human LSD1 enzyme (aa 151-852) (Homo sapiens (Human), UniProt O60341); assay: LSD1 fluorescence coupling enzymatic assay (horseradish peroxidase/Amplex Red); format: biochemical; conditions: 50 nM LSD1, 30 min pre-incubation, 10 μM histone 3.3 peptide (aa 1-21), 10-point dose-response; read-out: IC50 (nM), Inhibition of LSD1 Activity

EC50 (MV4-11 cells; 168 h, MV4-11 cells, Day 7, cell viability by CellTiter Glo) [nM] | Structure (SMILES) | EC50 (MV4-11 cells; MV4-11, 168 h) [nM] | IC50 [1] [nM]
 | CONC(=O)/C=C/c1ccc(CN2CCC(N[C@@H]3C[C@H]3c3ccccc3)CC2)cc1 (relative stereo) [Example 1, (E)-N-Methoxy-3-(4-((4-(((trans)-2-phenylcyclopropyl)amino)piperidin-1-yl)methyl)phenyl)acrylamide] | 1 | 
 | CS(=O)(=O)NC(=O)/C=C/c1ccc(CN2CCC(N[C@@H]3C[C@H]3c3ccccc3)CC2)cc1 (relative stereo) [Example 2, (E)-N-(Methylsulfonyl)-3-(4-((4-(((trans)-2-phenylcyclopropyl)amino)piperidin-1-yl)methyl)phenyl)acrylamide] | 14 | 
 | CONC(=O)/C=C/c1cccc(CN2CCC(N[C@@H]3C[C@H]3c3ccccc3)CC2)c1 (relative stereo) [Example 3, (E)-N-Methoxy-3-(3-((4-(((trans)-2-phenylcyclopropyl)amino)piperidin-1-yl)methyl)phenyl)acrylamide] | 3 | 25
55 | CS(=O)(=O)NC(=O)/C=C/c1cccc(CN2CCC(N[C@@H]3C[C@H]3c3ccccc3)CC2)c1 (relative stereo) [Example 4, (E)-N-(Methylsulfonyl)-3-(3-((4-(((trans)-2-phenylcyclopropyl)amino)piperidin-1-yl)methyl)phenyl)acrylamide] |  | 
 | CS(=O)(=O)NC(=O)/C=C/c1ccc(CN2CCC(N[C@@H]3C[C@H]3c3ccccc3)CC2)cc1 [Example 15, (E)-N-(Methylsulfonyl)-3-(4-((4-(((1R,2S)-2-phenylcyclopropyl)amino)piperidin-1-yl)methyl)phenyl)acrylamide] | < 1 | 
 | O=C(Cc1ccc(CN2CCC(N[C@@H]3C[C@H]3c3ccccc3)CC2)cc1)NS(=O)(=O)C1CC1 [Example 45, N-(cyclopropylsulfonyl)-2-(4-((4-(((1R,2S)-2-phenylcyclopropyl)amino)piperidin-1-yl)methyl)phenyl)acetamide] | 43 | 
